Yeast UUG start – yeast start codon fidelity modulation | S. cerevisiae UUG-firefly luciferase reporter, luminescence/redox ratio | activity score, % at 18.7 µM | hit rate 0.13% among 350,000 | AID 602363;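 active means replicate mean at a twofold rise or more, about +100% in these data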;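 further: firefly luciferase made from a UUG start codon reports start codon fidelity; reporter light over untreated wells divided by growth signal over untreated wells; some hits fall short of that in this replicate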
miR122 inh – inhibitors of miR-122 in Huh7 cells. activation (reporter increase), % at 12.5 µM. 340,000 compounds, 0.3% hits. Huh7 miR-122 Renilla luciferase sensor, 48 h; neutral wells = 0, positive control = 100. AID 602342;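 active = mean replicate activation score at least 90 and every replicate individually at or above 90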;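 also: higher luciferase means less miR-122 activity so hits act as miR-122 inhibitors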
PGC1a acetyl inh – PGC1a acetylation modulation, inhibitor mode. U2OS PGC1a acetylation, AlphaScreen anti-acetyl-lysine; with virally co-expressed GCN5 acetyltransferase. inhibition, % at 15.6 µM. 350,000 compounds, 0.17% hits;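 active = every replicate shows inhibition of at least 40%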;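 also: 0% = neutral control wells and 100% = positive control wells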
Cneo AK release – Cryptococcus neoformans lysis via adenylate kinase release; AID 651654; lysis activity, % at 15 µM; C. neoformans lysis, adenylate kinase release luminescence, 4 h; normalised: neutral wells 0, clomiphene wells 100; 360,000 compounds, 0.2% hits;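 active = mean lysis activity across replicates of at least 80%, whatever share of replicates individually reach that level; inactive = mean lysis activity below 80%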
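Assay system: log-phase C. neoformans yeast / Quantity: yeast cell density of 5 × 10^6 cells/mL / Medium: fresh YPD growth medium / Compound: single dose / Timing: static 4 h at 37 °C with compound, 1 h detection / Measured by: adenylate kinase release luminescence / Read-out: lysis from increased AK signal / Benchmarks: Clomiphene as positive lysis control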
HIV Env fusion – inhibitors of HIV Env-mediated cell fusion. HeLa-JRFL Env/CEM21 cell fusion, luciferase. inhibition, % at 12.3 µM. 360,000 compounds, 1.1% hits;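 active = mean replicate inhibition score of at least 50 and every replicate individually at or above 50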;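 also: 0% = plate neutral controls and 100% = maraviroc near 300 nM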
FN deposition inh – fibronectin deposition inhibition. AID 743247. 350,000 compounds, 0.086% hits. AH1F fibroblasts, Alexa488-fibronectin deposition fluorescence, overnight. inhibition, % at 12.6 µM;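 active = mean inhibition across replicates of 30% or more, regardless of how many single replicates reach that level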;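 also: positive control wells lacked labelled fibronectin entirely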
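Material: AH1F fibroblasts assembling fluorescent fibronectin matrix; amount: 10000 AH1F cells/well; medium: DMEM, 2% serum; reagent: Alexa488-fibronectin, 24 nM final in well; dosing: single compound dose, delivered by pin transfer; incubation: 1 h adhesion, overnight exposure; detection: fluorescence after three HBSS washes, excitation 485 nm, emission 525 nm; measure: fibronectin deposition inhibition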
Starred values were filed as active, the others as inactive; x = no result; [ ] = dose if it differs, or a comment. Most compounds without a hit are left out; they make up all but 1.5% or so of the library.

The line under a structure holds: Yeast UUG start | miR122 inh | PGC1a acetyl inh | Cneo AK release | HIV Env fusion | FN deposition inh
C[C@H]1CCCCO[C@@H](CN(C)C(=O)CCCN(C)C)[C@@H](C)CN([C@@H](C)CO)C(=O)c2cc(NC(=O)Cc3ccccc3)ccc2O1
  7.2 | -3.3[16.7 µM] | -4.0 | 2.5 | 14.4[16.7 µM] | -4.7
C[C@@H]1CCCCO[C@H](CN(C)C(=O)CCCN(C)C)[C@H](C)CN([C@@H](C)CO)C(=O)c2cc(NC(=O)Cc3ccccc3)ccc2O1
  12.9 | 4.1[16.7 µM] | -12.8 | 2.2 | -1.8[16.7 µM] | -8.3
C[C@H](CO)N1C[C@H](C)[C@H](CN(C)CC2CC2)OCCCC[C@H](C)Oc2ccc(NC(=O)NC3CCCCC3)cc2C1=O
  x | -0.5[16.7 µM] | 2.0 | 6.8 | -28.4[16.7 µM] | x
Cc1cc2ncn(S(=O)(=O)N3CCCCC3)c2cc1C
  -33.5 | -2.6 | -6.2 | 1.2 | 83.5* | 1.2
Cc1cc2ncn(S(=O)(=O)N3CCOCC3)c2cc1C
  -32.9 | -1.9 | -1.9 | -0.2 | x | x
COc1ccc(CC(=O)N(c2ccccc2)c2nc(C)cs2)cc1
  -4.4 | 2.4 | -8.7 | -0.9 | 13.8 | -3.2
COc1cccc2c1-c1c(O)cccc1C2=O
  -8.4 | x | x | -0.1 | -41.1 | 4.4
CC1OC(CC(=O)O)CC2=C1C(=O)c1c(O)cccc1C2=O (stereo not given)
  x | -10.3 | 74.8* | x | 76.2* | 59.2*
CC1(C)C(=O)C2(CCCCC2)C(=O)OC1c1cccn1-c1ccc([N+](=O)[O-])cc1 (stereo not given)
  x | x | x | x | 72.1* | x
CC1(C)C(=O)OC(c2cccn2-c2ccc([N+](=O)[O-])cc2)C(C)(C)C1=O (stereo not given)
  x | x | x | x | 6.1 | 6.7
O=C(c1ccc2c(c1)OCO2)N(CC1CCCO1)C1(C(=O)NC2CCCCC2)CCCCC1 (stereo not given)
  -19.1 | 0.3 | 0.4 | 4.8 | 135.0* | -10.9
O=C(c1ccc2c(c1)OCO2)N(Cc1cccs1)C1(C(=O)NC2CCCCC2)CCCCC1
  x | x | x | x | 103.3* | -7.1
O=C(NNC(=S)NC1CCCCC1)c1ccc2c(c1)OCO2
  0.5 | 106.1* | x | -3.4 | -15.0 | -3.1
O=C(Cc1cccs1)N(Cc1ccco1)C1(C(=O)NC2CCCCC2)CCCCC1
  -11.6 | 7.8 | -23.3 | -0.2 | 73.1* | -3.0
O=C(NC1CCCN(c2ccc(C(F)(F)F)cn2)C1)c1cc(Cl)ccc1F (stereo not given)
  -8.5 | -6.4 | -2.0 | 0.4 | 19.7 | x
Cc1ccc2c(c1)nnn2C1CCN(CC(=O)Nc2ccc(F)cc2)CC1
  1.8 | x | -1.4 | -3.8 | 3.0 | 1.5
C[C@H](CO)N1C[C@H](C)[C@@H](CN(C)Cc2ccc(-c3ccccc3)cc2)Oc2c(NS(=O)(=O)c3cccs3)cccc2C1=O
  -3.2 | 15.5[16.7 µM] | -2.4 | -0.3 | -0.8 | -6.8
O=c1ccc2ccccc2c2ccccc12
  x | x | x | x | -3.2 | 9.7
O=Nc1c(O)c2ccccc2c2ccccc12
  -59.2 | -28.6 | 44.7* | -6.4 | 81.2* | 37.9*
CO[C@@H]1CN(C)C(=O)c2ccc(NC(C)=O)cc2OC[C@@H](C)N(S(=O)(=O)c2cn(C)cn2)C[C@H]1C
  16.6 | x | 1.2 | -0.5 | x | 9.8
Cc1ccc(Nc2cc(C)nc(NCc3ccccc3)n2)cc1
  x | x | x | x | 151.4* | 10.3
COc1cc(C)nc(NCc2ccccc2)n1
  x | 1.1 | x | x | -92.1 | 2.3
Cc1cc(NC2CCCCC2)nc(NCc2ccccc2)n1
  -22.7 | x | x | -9.9 | 53.7* | 11.9
C/C=C(\C)CN1CCC(Oc2cccc(C(=O)NCc3ccccn3)c2)CC1
  -17.3 | 2.3 | 3.1 | 3.2 | -2.9 | 4.8
COc1cc(/C=C2/C(=N)N3N=C(CC(=O)N4CCOCC4)SC3=NC2=O)ccc1OCc1ccccc1
  -5.8 | 4.7 | -6.2 | -12.8 | -29.3 | 9.0
CCCC(=O)Nc1ccc2c(c1)C(=O)N(C)[C@H]1CC[C@H](CC(=O)NCC3CCCCC3)O[C@H]1CO2
  7.3 | 41.9[16.7 µM] | -2.5 | -0.5 | -21.4[16.7 µM] | -13.0
CCSC1=C(C#N)C(c2ccccc2Cl)CC(=O)N1 (stereo not given)
  -8.0 | -0.7 | 2.3 | -2.0 | x | x
Cc1ccc(S(=O)(=O)N2CCC(=O)N(CCOCc3ccc(C(F)(F)F)cc3)CC2)cc1
  -12.9 | x | x | -1.9 | 68.6* | 16.8
Cc1ccc(S(=O)(=O)N2CCC(=O)N(CCOC(=O)Nc3cccc(Cl)c3)CC2)cc1
  2.4 | -5.0 | -5.5 | 1.1 | 92.0* | 4.9
Cc1noc(C)c1S(=O)(=O)N(C)C[C@H]1Oc2ccc(NC(=O)CCCCCC(=O)Nc3ccccc3N)cc2CC(=O)N([C@H](C)CO)C[C@H]1C
  25.3 | -3.0[16.7 µM] | -0.6 | 55.4 | 10.4[16.7 µM] | -7.5

Next section
Keys – A = Yeast UUG start; B = miR122 inh; C = PGC1a acetyl inh; D = Cneo AK release; E = HIV Env fusion; F = FN deposition inh
> CC(C)CN(C(=O)CSc1nnc(C2CC2)n1-c1ccccc1)C1CCS(=O)(=O)C1 (stereo not given)
  A: -11.5	B: x	C: x	D: -1.0	E: x	F: x

> Cc1ccc(CNc2nc(NCC3CC3)nc3ccsc23)c(C)c1
  A: -14.0	B: -8.8	C: x	D: 0.2	E: 45.3	F: -1.6

> c1cc2cc(CNc3nc(NCC4CC4)nc4ccsc34)ccc2o1
  A: -8.3	B: -12.3	C: x	D: -1.4	E: 80.3*	F: 6.1

> COc1ccccc1CNc1nc(NCc2ccc3occc3c2)c2sccc2n1
  A: 22.2	B: -3.8	C: x	D: -0.5	E: 57.5*	F: -10.3

> COc1cc2c(c(OC)c1OC)-c1ccc(OC)c(=O)cc1[C@@H](NC(C)=O)CC2
  A: 0.1	B: 65.7	C: 2.6	D: 0.0	E: -58.9	F: -54.3

> O=C(Nc1cccc(C(F)(F)F)c1)C1Cc2c(-c3cccc(F)c3)ccnc2O1 (stereo not given)
  A: -24.5	B: -6.4	C: 3.0	D: -1.1	E: 33.8	F: 8.5

> CS(=O)(=O)N(CC(O)CON=C1c2ccccc2-c2ccccc21)c1ccc(F)cc1 (stereo not given)
  A: -8.8	B: 3.1	C: 12.4	D: -1.7	E: x	F: x

> CCN(CC(O)CON=C1c2ccccc2-c2ccccc21)S(=O)(=O)c1ccc(C)cc1 (stereo not given)
  A: -9.4	B: -6.3	C: x	D: 4.6	E: 79.1*	F: 0.5

> Cc1cccc(N(CC(O)CON=C2c3ccccc3-c3ccccc32)S(C)(=O)=O)c1 (stereo not given)
  A: -12.5	B: 8.0	C: -4.5	D: -4.1	E: 64.7*	F: -6.2

> CCN(CC(O)CON=C1c2ccccc2-c2ccccc21)S(=O)(=O)c1ccc(Cl)cc1 (stereo not given)
  A: x	B: x	C: x	D: x	E: 76.8*	F: x

> COc1cccc(CN2CCC(CO)(CC3CCCCO3)CC2)c1 (stereo not given)
  A: x	B: 0.5	C: 99.9*	D: x	E: 2.3	F: -1.9

> COCc1ccc(CN2CCC(CO)(CC3CCCCO3)CC2)o1 (stereo not given)
  A: x	B: x	C: -9.3	D: x	E: 4.9	F: x

> Cc1ccc2nc(-c3cccc(NC(=O)c4ccc5c(c4)OCCO5)c3)oc2c1
  A: -17.4	B: 1.0	C: -8.3	D: -3.2	E: -58.0	F: 5.2

> C=CCn1c(Cc2ccc(OCC)cc2)nnc1SCC(N)=O
  A: 11.1	B: -3.0	C: 10.9	D: -2.1	E: 77.3*	F: 1.4

> CC(=O)c1ccc([C@@H]2C[C@]34CN(Cc5cccc(C(F)(F)F)c5)S(=O)(=O)[C@H]3C[C@H]2O4)cc1
  A: -5.9	B: -5.3	C: x	D: 2.1	E: 31.0	F: -8.6

Grouped by structure, those above with a furan ring, fused or not (4)
Keys – A = Yeast UUG start; B = miR122 inh; C = PGC1a acetyl inh; D = Cneo AK release; E = HIV Env fusion; F = FN deposition inh
> O=C(Cc1cccs1)N(Cc1ccco1)C1(C(=O)NC2CCCCC2)CCCCC1
  A: -11.6	B: 7.8	C: -23.3	D: -0.2	E: 73.1*	F: -3.0

> c1cc2cc(CNc3nc(NCC4CC4)nc4ccsc34)ccc2o1
  A: -8.3	B: -12.3	C: x	D: -1.4	E: 80.3*	F: 6.1

> COc1ccccc1CNc1nc(NCc2ccc3occc3c2)c2sccc2n1
  A: 22.2	B: -3.8	C: x	D: -0.5	E: 57.5*	F: -10.3

> COCc1ccc(CN2CCC(CO)(CC3CCCCO3)CC2)o1 (stereo not given)
  A: x	B: x	C: -9.3	D: x	E: 4.9	F: x
